{
  "sequences": {"note": "The chains behind the UniProt entries cited, without tags or fusion partners. Where a name states a change or a piece, a line headed by the entry shows the natural chain unless it says otherwise.", "UniProt A1Z1Q3": "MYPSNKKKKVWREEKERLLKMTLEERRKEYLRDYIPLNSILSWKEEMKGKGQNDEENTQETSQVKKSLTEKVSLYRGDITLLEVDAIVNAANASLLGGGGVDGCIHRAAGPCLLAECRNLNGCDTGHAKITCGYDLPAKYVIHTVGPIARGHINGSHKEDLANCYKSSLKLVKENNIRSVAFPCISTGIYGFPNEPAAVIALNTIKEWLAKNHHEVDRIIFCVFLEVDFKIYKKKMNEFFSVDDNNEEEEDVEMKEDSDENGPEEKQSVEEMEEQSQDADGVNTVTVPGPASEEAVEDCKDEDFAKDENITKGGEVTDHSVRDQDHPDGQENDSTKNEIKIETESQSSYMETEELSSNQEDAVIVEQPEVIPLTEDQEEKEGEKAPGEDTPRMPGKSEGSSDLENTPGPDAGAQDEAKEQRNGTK"},
  "source": "paper PMC8580838",
  "target": "MARylated YFP-GAP",
  "assay": "FRET or BRET",
  "data": [
    {"substance": "CFP-MDO2 (from UniProt A1Z1Q3 1-425) (enzyme)", "values": [
      {"measurement": "Kd", "value": 654, "unit": "nM"}
    ]}
  ]
}
